Reference: BindingDB's records for PubMed 11171942 (University of Reading, 2001)

By UniProt entry, the sequences of proteins in these tests, tags left out.
UniProt P61169, whole entry: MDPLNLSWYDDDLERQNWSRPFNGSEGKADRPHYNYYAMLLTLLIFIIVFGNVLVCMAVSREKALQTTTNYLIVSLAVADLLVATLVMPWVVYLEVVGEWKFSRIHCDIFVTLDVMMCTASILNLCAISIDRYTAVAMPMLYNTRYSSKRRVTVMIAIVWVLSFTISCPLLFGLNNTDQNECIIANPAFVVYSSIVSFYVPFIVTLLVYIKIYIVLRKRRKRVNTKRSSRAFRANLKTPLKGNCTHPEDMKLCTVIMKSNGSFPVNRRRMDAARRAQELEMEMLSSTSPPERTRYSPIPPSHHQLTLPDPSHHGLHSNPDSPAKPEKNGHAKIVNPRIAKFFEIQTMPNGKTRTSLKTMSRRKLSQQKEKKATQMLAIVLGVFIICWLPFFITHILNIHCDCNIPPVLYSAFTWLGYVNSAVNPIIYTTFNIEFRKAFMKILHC

Molecular target: D(2) dopamine receptor (Rattus norvegicus, UniProt P61169)

For O=C1NCCN1CCN1CCC(c2cn(-c3ccc(F)cc3)c3ccc(Cl)cc23)CC1 [1-[2-[4-[5-chloro-1-(4-fluorophenyl)-indol-3-yl]-1-piperidyl]ethyl]imidazolidin-2-one], the Ki was 0.38 nM.
